# Source: US7855233B2 (Teva Pharmaceutical Industries, Ltd., priority 2009, dated 2010)
# Legend:
# [1] = Aqueous / water solubility
# [2] = Table 8c, from references; cited from earlier work
Substance,aqueous solubility (in words) [1],Hygroscopicity by KF [2]
rasagiline citrate,highest water solubility,–
Rasagiline Tartrate,–,Not hygroscopic
